Target: neurokinin-1 receptor (NK-1) (human) (UniProt P25103)
Assay: cell-based or functional assay

Sequences of proteins named here, by UniProt entry; tags and fusion partners are left off.
UniProt P25103, whole entry: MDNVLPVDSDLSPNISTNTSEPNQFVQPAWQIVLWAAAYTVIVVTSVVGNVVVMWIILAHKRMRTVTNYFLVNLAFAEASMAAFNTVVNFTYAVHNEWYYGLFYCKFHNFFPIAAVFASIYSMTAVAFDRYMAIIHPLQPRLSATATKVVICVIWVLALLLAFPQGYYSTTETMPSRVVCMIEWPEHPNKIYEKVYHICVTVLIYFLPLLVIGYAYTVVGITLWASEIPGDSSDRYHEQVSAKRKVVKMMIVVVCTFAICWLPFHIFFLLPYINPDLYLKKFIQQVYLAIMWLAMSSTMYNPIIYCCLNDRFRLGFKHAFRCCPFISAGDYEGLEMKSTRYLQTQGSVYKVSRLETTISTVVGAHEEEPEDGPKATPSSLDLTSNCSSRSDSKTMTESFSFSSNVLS

For “substance P (from UniProt P20366 58-68) (peptide)”, the reduction of SP-induced β-PPT-I mRNA by 10 nM NK-1-specific antagonist CP-99,994 was 7 fold, the β-PPT-I mRNA (quantitative RT-PCR) in BM stroma stimulated with 1 nM SP for 16 h (molecules/µg total RNA) was 284 and the β-PPT-I mRNA (quantitative RT-PCR) in BM stroma stimulated with 1 nM SP in the presence of 10 nM NK-1-specific antagonist CP-99,994 (molecules/µg total RNA) was 42.

From US20020146810A1
